Earlier results, collected in US11965206B2, “Method of dosing a patient with multiple drugs using adjusted phenotypes of CYP450 enzymes” (priority 2018, dated 2024).

The chains behind the UniProt entries cited, without tags or fusion partners.
UniProt P10635, whole entry: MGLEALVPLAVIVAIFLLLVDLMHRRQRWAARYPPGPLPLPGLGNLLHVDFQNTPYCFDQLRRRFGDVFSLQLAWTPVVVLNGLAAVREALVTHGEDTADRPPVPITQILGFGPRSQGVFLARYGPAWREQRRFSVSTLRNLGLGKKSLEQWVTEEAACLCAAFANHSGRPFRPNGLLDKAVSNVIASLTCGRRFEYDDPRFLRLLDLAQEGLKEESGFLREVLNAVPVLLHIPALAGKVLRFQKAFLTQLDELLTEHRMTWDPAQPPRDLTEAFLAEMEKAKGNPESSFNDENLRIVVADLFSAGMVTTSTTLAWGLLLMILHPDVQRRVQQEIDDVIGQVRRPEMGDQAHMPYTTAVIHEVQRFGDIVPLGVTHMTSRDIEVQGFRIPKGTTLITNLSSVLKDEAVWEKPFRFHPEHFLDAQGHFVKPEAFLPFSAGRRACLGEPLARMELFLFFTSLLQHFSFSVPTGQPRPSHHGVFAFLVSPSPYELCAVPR
UniProt P05177, whole entry: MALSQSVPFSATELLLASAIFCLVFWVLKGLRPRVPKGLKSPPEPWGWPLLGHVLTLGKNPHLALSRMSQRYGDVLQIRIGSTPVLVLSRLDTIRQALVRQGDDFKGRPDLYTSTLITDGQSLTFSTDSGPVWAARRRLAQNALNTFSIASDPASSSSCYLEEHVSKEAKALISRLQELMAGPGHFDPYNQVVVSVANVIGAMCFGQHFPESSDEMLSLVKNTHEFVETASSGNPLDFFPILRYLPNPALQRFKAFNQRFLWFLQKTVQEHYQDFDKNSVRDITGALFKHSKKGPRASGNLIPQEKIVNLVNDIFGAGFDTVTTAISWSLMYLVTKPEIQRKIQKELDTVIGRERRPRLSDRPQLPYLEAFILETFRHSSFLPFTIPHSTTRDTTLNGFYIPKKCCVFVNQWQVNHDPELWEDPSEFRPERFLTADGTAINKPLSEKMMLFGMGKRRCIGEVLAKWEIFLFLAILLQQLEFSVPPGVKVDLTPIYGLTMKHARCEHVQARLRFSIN

What was measured:
CYP450 enzyme 2D6 = CYP450 enzyme 2D6 (Homo sapiens, UniProt P10635); conditions: found in drug databases
CYP450 enzyme 1A2 = CYP450 enzyme 1A2 (Homo sapiens, UniProt P05177); conditions: found in drug databases

## Cc1cc2c(s1)Nc1ccccc1N=C2N1CCN(C)CC1 [Zyprexa]
CYP450 enzyme 2D6
  substrate for 2D6: substrate
CYP450 enzyme 1A2
  substrate for 1A2: substrate
